In US6355624B1, “Measurement of plasma volume” (University Wales College of Medicine, priority 1997, dated 2002):

Key:
[1] = design: species or system rabbits; details: rabbit, in vivo
Source text: (§1) The three preparations were named: The volume of distribution [Vd] and complete pharmacokinetic profiles for the elimination of these three materials was studied in healthy and mature rabbits, healthy and anaesthetised new-born piglets and anaesthetised new-born piglets with an acute septicaemia induced by administration of Escherichia Coli. The effect of the original dose on kinetic parameters for Elohaes™ and hmw-Elohaes™ was examined in mature rabbits only. The Rowland two-compartment open model was used, with the central compartment being plasma and the peripheral compartment being interstitial water. Elimination was considered to occur from a part of this peripheral compartment. This model is expressed diagrammatically in FIG. 1. […] The rate constant k3 is the proportion of material, in interstitial water, being irreversibly eliminated. The parameters of this model, are related to the bi-exponential mathematical model described earlier by: [formula]

[2] = design: species or system piglets; details: in vivo
Source text: as §1, with “[formula] […] This ratio can be estimated from [(C0-C60)/C60] where C60 is the concentration after 60 minutes and C0 is the concentration at zero time. The following Table 21 summarises the information from piglets according to these three principles.” for “[formula]”

[3] = rabbit, in vivo

Substance: Fluorescein Isotuiocyanate (FITC) Labelled Hydroxyethyl Starch (HES) [FITC-Elohaes]
- Vd [1]: 59.5 ± 1.20
- k1 [1]: 0.0157 min⁻¹
- k1/k2 [1]: 1.32
- k2 [1]: 0.0133 min⁻¹
- Vd & SEM ([1]; 0.15 mg/kg): 0.0604 ± 0.0018 L/kg
- k1 ([1]; 0.15 mg/kg): 0.0163 min⁻¹
- k2 ([1]; 0.15 mg/kg): 0.0140 min⁻¹
- k3 ([1]; 0.15 mg/kg): 0.00128 min⁻¹
- Vd & SEM ([1]; 0.56 mg/kg): 0.0521 ± 0.0018 L/kg
- k1 ([1]; 0.56 mg/kg): 0.0122 min⁻¹
- k2 ([1]; 0.56 mg/kg): 0.0085 min⁻¹
- k3 ([1]; 0.56 mg/kg): 0.0009 min⁻¹
- Vd & SEM ([1]; 1.95 mg/kg): 0.0467 ± 0.0025 L/kg
- k1 ([1]; 1.95 mg/kg): 0.0199 min⁻¹
- k2 ([1]; 1.95 mg/kg): 0.096 min⁻¹
- k3 ([1]; 1.95 mg/kg): 0.00124 min⁻¹
- Vd & SEM ([1]; 16.6 mg/kg): 0.041 ± 0.003 L/kg
- k1 ([1]; 16.63 mg/kg): 0.0145 min⁻¹
- k2 ([1]; 16.63 mg/kg): 0.0107 min⁻¹
- k3 ([1]; 16.63 mg/kg): 0.0012 min⁻¹
- k1 [2]: 0.029 min⁻¹
- k1/k2 [2]: 1.12
- k2 [2]: 0.026 min⁻¹
- k3 [2]: 0.0046 min⁻¹
- k3 ([2]; 1 mg/kg): 0.0046 min⁻¹
- volume of distribution [3]: 0.0445 L/kg

Like-named read-outs stand apart in the source and are kept apart here.
